One compound from publication PMC10390508, “Structural insights into selective small molecule activation of PKG1α” (Communications Biology, 2023) can be followed below.

Chains of the proteins cited; added tags and fusions are not shown. Residues count along the entry.
UniProt Q13976, 2-671: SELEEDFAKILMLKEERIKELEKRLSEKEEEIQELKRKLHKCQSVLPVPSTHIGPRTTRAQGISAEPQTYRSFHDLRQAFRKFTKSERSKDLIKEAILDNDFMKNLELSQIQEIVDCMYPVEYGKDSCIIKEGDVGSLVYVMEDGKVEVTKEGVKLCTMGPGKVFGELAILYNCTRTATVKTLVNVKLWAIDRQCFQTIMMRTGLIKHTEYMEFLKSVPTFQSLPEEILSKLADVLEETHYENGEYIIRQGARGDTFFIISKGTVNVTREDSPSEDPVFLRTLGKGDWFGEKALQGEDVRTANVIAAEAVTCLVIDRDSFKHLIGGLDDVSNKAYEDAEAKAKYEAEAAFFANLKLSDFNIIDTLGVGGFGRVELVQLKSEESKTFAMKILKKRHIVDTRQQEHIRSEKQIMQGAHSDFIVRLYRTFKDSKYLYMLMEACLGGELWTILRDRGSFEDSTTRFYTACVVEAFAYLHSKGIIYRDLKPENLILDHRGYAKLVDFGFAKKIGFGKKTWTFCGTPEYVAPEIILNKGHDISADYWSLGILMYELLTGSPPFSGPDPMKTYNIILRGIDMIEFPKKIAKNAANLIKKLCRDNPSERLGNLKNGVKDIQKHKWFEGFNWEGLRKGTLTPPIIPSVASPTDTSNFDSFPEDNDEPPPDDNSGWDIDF

“And” between values parts separate entries of the source, which are not always exact repeats. Identical values can stand only once. Like-named read-outs stand apart in the source and are kept apart here.

The target in this assay is full-length PKG1α (human PKG1α2–671) (Homo sapiens, UniProt Q13976).

In the case of `Nc1nc2c(ncn2[C@@H]2O[C@@H]3COP(=O)(O)O[C@H]3[C@H]2O)c(=O)[nH]1` [cGMP, Cyclic guanosine monophosphate], the V0 is listed as ~ 0.25 μmol min^−1 mg^−1. The “cGMP EC20, activation of full length PKG1α” value (4-parameter fit of initial velocities) was 10 nM and ~ 10 nM. Besides, the V0 (partial activation at EC20, 10 nM cGMP) is given as ~ 0.13 μmol min^−1 mg^−1.
